Ab-14 heavy chain CDR variants: yeast mating affinities

The target is the same throughout: PDVDLGDISGINAS, from the HR2 region of SARS-CoV-2 spike.

The variants keep the light chain, the linker and the frameworks of Ab-14 (scFv order VH, the linker GGGGSGGGGSGGGGS, VL).
VH: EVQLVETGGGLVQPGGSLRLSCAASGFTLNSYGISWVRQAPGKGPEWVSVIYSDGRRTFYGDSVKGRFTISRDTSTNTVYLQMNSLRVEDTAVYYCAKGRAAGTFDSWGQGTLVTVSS
VL: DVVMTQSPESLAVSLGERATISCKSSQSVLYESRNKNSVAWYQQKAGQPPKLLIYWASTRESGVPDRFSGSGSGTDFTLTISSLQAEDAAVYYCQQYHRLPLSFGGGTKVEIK

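The starting antibody came from a phage panning campaign against this peptide. Designed CDR sequences, proposed from the first random library and measured here. Several design methods are mixed in this list. The scFvs were displayed on barcoded MATa yeast, the peptide on MATalpha yeast. Pairs that bind mate more often; barcode pairs of the diploids are counted by sequencing. Read counts were normalised to the haploid input and turned into Kd by a linear fit to BCL2-family pairs of known affinity, for each replicate. Mating was done six times.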

Changes read parent residue, position, new residue, counted from the first residue of the VH shown. This list holds designs with at most six substitutions. Values are apparent Kd, the geometric mean of the replicates that gave a signal; lower means stronger binding. An entry "no signal" has no value in the source: the pair was not observed among the diploids in any replicate. This suggests poor binding but is not conclusive. Values of this round are not directly comparable with the first-round values of the same sequences.

T28S/S31Q/I34S/G103C: no signal (0 of 6 replicates; controls 0 of 18).
I51P/G55R/G61S/A102G: no signal (0 of 6 replicates; controls 0 of 18).
T28W/S31N/S53A/R100T: 3.1 nM (5 of 6 replicates; controls 0 of 18).
N30D/S53A/A101T: 340 pM (6 of 6 replicates; controls 0 of 18).
S53A/G61N/A101E: 2.1 nM (6 of 6 replicates; controls 0 of 18).
F27N/T28H: no signal (0 of 6 replicates; controls 0 of 18).
G26K/T28D/F59Y/A101T: 1.5 nM (6 of 6 replicates; controls 1 of 18).
T28D/S31E/S53A/F59A/G61I/R100N: 690 pM (6 of 6 replicates; controls 0 of 18).
T28V/L29I/S63N: 65 nM (4 of 6 replicates; controls 0 of 18).
G61N/S63A/R100E/A101L: 6.2 nM (6 of 6 replicates; controls 0 of 18).
T28S/R100W/S107L: 19 nM (3 of 6 replicates; controls 0 of 18).
T28S/G61D/S63N/A101T: 2.3 nM (6 of 6 replicates; controls 0 of 18).
S53A/G61Q/G103H: 1.5 nM (5 of 6 replicates; controls 0 of 18).
T28E/R100V/A101Q: no signal (0 of 6 replicates; controls 0 of 18).
T28S/G61Q/S63N/R100E: 490 pM (6 of 6 replicates; controls 0 of 18).
T28A/N30E/R100Q/T104L: no signal (0 of 6 replicates; controls 0 of 18).
S31L/F59A/G61A/S63K/A101W: 160 nM (5 of 6 replicates; controls 1 of 18).
R56K/R100S/S107L: 1.7 nM (6 of 6 replicates; controls 0 of 18).
R100Q/A101L: 29 nM (6 of 6 replicates; controls 0 of 18).
T28K/F59A/A101Q: 20 nM (6 of 6 replicates; controls 0 of 18).
R56H/G61D/R100Q/A101L/S107T: no signal (0 of 6 replicates; controls 0 of 18).
T28A/G61V/R100Q/A101L: 40 nM (5 of 6 replicates; controls 1 of 18).
D54M/G61S/A102G/S107H: no signal (0 of 6 replicates; controls 0 of 18).
R100K/A101T: 41 nM (6 of 6 replicates; controls 0 of 18).
T28D/S63H/A101T: 2.8 nM (6 of 6 replicates; controls 0 of 18).
G26H/V50A/D106V/S107E: no signal (0 of 6 replicates; controls 0 of 18).
R56K/R100K/A101T: 6.9 nM (6 of 6 replicates; controls 0 of 18).
T28D/G61V/S63Q/R100Q: no signal (0 of 6 replicates; controls 0 of 18).
N30D/G61H/S107R: 8.6 nM (5 of 6 replicates; controls 0 of 18).
G26H/T28D/G61I/R100Q: no signal (0 of 6 replicates; controls 0 of 18).
L29I/N30L: 6.9 nM (4 of 6 replicates; controls 1 of 18).

Repeated from above, the 5 best binders with a signal in all replicates:

For N30D/S53A/A101T, the assay gave 340 pM (6 of 6 replicates; controls 0 of 18).
For T28S/G61Q/S63N/R100E, the assay gave 490 pM (6 of 6 replicates; controls 0 of 18).
For T28D/S31E/S53A/F59A/G61I/R100N, the assay gave 690 pM (6 of 6 replicates; controls 0 of 18).
For G26K/T28D/F59Y/A101T, the assay gave 1.5 nM (6 of 6 replicates; controls 1 of 18).
For R56K/R100S/S107L, the assay gave 1.7 nM (6 of 6 replicates; controls 0 of 18).

Nonspecific signal, from three strains lacking the peptide, appeared in 1% of pairings of all heavy chain designs, centred on 120 nM (5% of these signals below 7.0 nM); values are not corrected for it. The control count says in how many pairings with the empty strains this scFv gave a signal. In the paper, a design with two or fewer of six values counts as a poor binder.

From the AlphaSeq antibody data of Li et al. 2023 (doi:10.1038/s41467-023-39022-2), copy in the FLAb collection.